{"source": "paper PMC5715147", "about": "“Albumin/vaccine nanocomplexes that assemble in vivo for combination cancer immunotherapy” (Nature Communications, 2017)", "test_system": "IN LN B220+ B cells, CD11c+ DCs, and F4/80+ macrophages", "assay": "AlbiVax uptake in LN-residing APCs by flow cytometry", "conditions": "premixed MSA-FITC and AlbiCpG-Alexa555 s.c."}
{"substance": "MSA-FITC: FITC-labeled mouse serum albumin", "values": [{"measurement": "MSA+ B cells, day 1", "value": 7, "unit": "%"}]}
